From patent US11015179B2, “Peptide having anti-viral effect and composition containing same” (priority 2015, dated 2021)
“Also recorded” adds a separate entry of the source.

Key:
INFγ = INFγ activity of immune cells (FACS) in whole HBV W4P genome-transgenic mice; assay type: in vivo; details: 8 weeks; PEP1 50 μg/kg, 3TC 500 μg/kg; HBsAg stimulation 72 hours
HBV [1] = assay type: in vivo, mice; details: caudal vein twice a week; PEP1 50 μg/kg, 3TC 500 μg/kg
Method: HBV transgenic mice were prepared by injecting a 1.1-fold HBV base sequence comprising a full open reading frame (ORF) into the fertilized eggs of the mice through microinjection. The base sequence of HBV used in the research was obtained using a pHY92-W4P plasmid. The pHY92-W4P plasmid was digested with EcoRi before injection into the fertilized eggs of the mice, and finally a base sequence of 3.9 kb in length was used for microinjection. Produced subjects were selected through PCR using a specific sequence of HBsAg. PCR-positive subjects were selected according to the concentrations of serum HBsAg and HBeAg, and finally used as PCR-positive, HBsAg-positive, and HBeAg-positive mice in the study. These mice were backcrossed with C57BL/6 mice to produce heterologous HBV transgenic mice.
HBsAg levels in the HBV-transgenic mice were determined using an HBsAg ELISA kit (BIOKIT, Germany). To quantify HBV titers, total DNA was extracted and confirmed by real-time PCR.
In addition, HBV virion DNA was obtained from mouse serum and subjected to real-time PCR.

macrophages = test: Differentiation of macrophages (FACS) in whole HBV W4P genome-transgenic mice; assay type: in vivo; details: eight weeks; PEP1 50 μg/kg, 3TC 500 μg/kg; vs PBS
Method: Therefore, to observe if the PEP1 peptide is able to differentiate macrophages to M1, eight weeks after PBS, 50 μg/kg of the PEP1 peptide and 500 μg/kg of 3TC were injected into the caudal vein of each of transgenic mice prepared by injecting the whole HBV W4P variant genome twice a week, the whole blood was collected from the mouse and a kidney of the mouse was extracted, immune cells were isolated and stained with a macrophage marker (F4/80) and M1 marker MHCII through an extracellular cell surface staining method. Afterward, FACS analysis was carried out.

JFH-1 cells [2] = test: Flow cytometry of FITC-conjugated PEP1 penetration into JFH-1 cells; assay type: cell-based, human
JFH-1 cells [3] = test: Intracellular ROS production (DCF-DA) in JFH-1 cells; assay type: cell-based, human
Method: One day after 5×10^4 (cells/well) cells of the JFH-1 cell line were seeded into a 24-well plate, intracellular ROS production was measured according to various experimental materials. Measurement of intracellular activity was carried out by staining the cells with dichlorodihydrofluoresein diacetate (DCF-DA; Invitrogen), and fluorescence measurement of ROS production was carried out at […] using Infinte M2000 Tecan (Tecan Trading AG, Switzerland). All fluorescent units were expressed as arbitrary units, and as a positive control group, hydrogen peroxide (H2O2, 2 mM) was used. ROS measurement for the Huh7.5 cells was also carried out by the same procedure as described above.
As a control group, a human HCC cell line, and Huh7.5 and JFH-1 cell lines were treated with known representative antioxidants such as NAC (2 Mm), PDTC (100 μM), and vitamin E (10 μM) and then compared.
The inventors inhibited the interaction with HSP90 by two methods: a use of antibodies against […] and antibodies against HSP90 or a use of an inhibitor occupying a catalytic position (ATP-binding pocket in the N-terminal of HSP90).

HBV [4] = test: HBsAg ELISA in whole HBV W4P genome-transfected HepG2 cell line; assay type: cell-based, hepatitis B virus; details: 48 hours
HBV [5] = test: Antiviral effect with HSP90 blockage in whole HBV wild-type genome-transfected HepG2 cell line (real-time quantitative PCR); assay type: cell-based, hepatitis B virus; details: HepG2, PEP1 5 μM, 24 hours
Method: PEP1 has been known to pass through a cell membrane from the outside to the inside of the cells in a shuttle method via HSP90. To confirm if the antiviral effect is reduced in cells by blocking the HSP90 activity based on such a mechanism, in this research, a HepG2 cell line was transiently transfected with the whole HBV wild-type genome, treated with anti-GAPDH, anti-HSP (1 ug/ml, blockage of HSP90 activity) and 17-AAG (1 μM) for 1 hour, ant then with PBS (0.5%), entecavir (ETV, 30 nM) and PEP1 (5 μM) for 24 hours. Subsequently, the supernatant was collected and treated with PEG6000 to precipitate the virus, and viral DNA was extracted and subjected to real-time quantitative PCR to observe an antiviral effect. All experiments are independently performed in triplicate, and a statistical significance test was performed using one-way ANOVA through the Tukey's Multiple Comparison Test. ** p<0.05 versus PBS, and ## p<0.05 versus None.

In the case of `CC[C@H](C)[C@H](NC(=O)[C@H](Cc1ccccc1)NC(=O)[C@H](CCCNC(=N)N)NC(=O)[C@H](CC(C)C)NC(=O)[C@H](CCCNC(=N)N)NC(=O)[C@H](CO)NC(=O)[C@@H](NC(=O)[C@H](CC(C)C)NC(=O)[C@H](CC(C)C)NC(=O)[C@H](C)NC(=O)[C@@H]1CCCN1C(=O)[C@H](CCCNC(=N)N)NC(=O)[C@H](C)NC(=O)[C@@H](N)CCC(=O)O)[C@@H](C)O)C(=O)N1CCC[C@H]1C(=O)N[C@@H](CCCCN)C(=O)O` [PEP1, EARPALLTSRLRFIPK], the “INFγ activity of CD4, CD8 and NK1.1 cells” value (INFγ) is reported as “did not exhibit INFγ activity”, the “Level of HBsAg in serum, reduction effect on week 8” value (HBV [1]) is reported as “approximately 10%” and the “Level of HBsAg in serum, up to 4 weeks” value (HBV [1]) is reported as “neither the PEP1 peptide nor 3TC showed a reduction effect”. The “Serum virion level, week 4” value (HBV [1]) was “did not show virion inhibitory effects”, the “Distribution of macrophages among myeloid-derived cells” value (macrophages) was “significantly increased” and the “Number of cells differentiated to M1” value (macrophages) was “increased, compared to the PBS group, but not significantly”. The “Penetration into JFH-1 cells in the presence of PDTC” value (JFH-1 cells [2]) was “decreased”, the “ROS levels in the presence of anti-HSP70 antibodies” value (JFH-1 cells [3]) was “had an inhibitory effect on ROS levels” and the “ROS levels in the presence of anti-HSP90 antibodies” value (JFH-1 cells [3]) was “did not have such an effect”. For the same compound, the “ROS levels with control antibodies (isotype)” value (JFH-1 cells [3]) was “inhibition caused by PEP1 was observed”, the “Antioxidant activity of PEP1 with increasing concentrations of PDTC” value (JFH-1 cells [3]; 2 hours) was “gradually decreased” and the ROS production (JFH-1 cells [3]; 2 hours, PEP1 0.001-10 μM, NAC, PDTC 100 μM, vitamin E 10 μM, vs vehicle) was “considerably and dose-dependently inhibits ROS production; also recorded: concentration-dependently reduced ROS production”. For the same compound, the “Antioxidant activity compared with conventional antioxidants” value (JFH-1 cells [3]; PEP1 at 1 and 10 μM) was “equaled NAC, PDTC and vitamin E”, the HBsAg in pellets (HBV [4]; HepG2, 0.01 μM or higher) was “showed inhibitory effects” and the “Intracellular and extracellular HBsAg levels” value (HBV [4]; HepG2, 10 μM) was “exhibited inhibitory effects”. The HBsAg in supernatants (HBV [4]; HepG2, at 100 μM) was “showed no effect”, the HBsAg in supernatants (HBV [4]; HepG2, until 10 μM) was “showed inhibitory effects” and the “Antiviral effect (viral DNA in supernatant), no blocking or GAPDH-blocked group” value (HBV [5]) was “statistically more significantly shown”. The “Antiviral effect in group treated with HSP90 (anti-HSP) and 17-AAG” value (HBV [5]; 17-AAG 1 μM) was “no statistically significant antiviral effect”.
